This note sets out measurements from patent publication US8765779B2, “Tricyclic derivatives and their pharmaceutical use and compositions” (Cephalon, Inc., priority 2009, dated 2014).

Protein sequences, listed by entry. Tags and fused reporters are not part of them.
UniProt P50406, whole entry: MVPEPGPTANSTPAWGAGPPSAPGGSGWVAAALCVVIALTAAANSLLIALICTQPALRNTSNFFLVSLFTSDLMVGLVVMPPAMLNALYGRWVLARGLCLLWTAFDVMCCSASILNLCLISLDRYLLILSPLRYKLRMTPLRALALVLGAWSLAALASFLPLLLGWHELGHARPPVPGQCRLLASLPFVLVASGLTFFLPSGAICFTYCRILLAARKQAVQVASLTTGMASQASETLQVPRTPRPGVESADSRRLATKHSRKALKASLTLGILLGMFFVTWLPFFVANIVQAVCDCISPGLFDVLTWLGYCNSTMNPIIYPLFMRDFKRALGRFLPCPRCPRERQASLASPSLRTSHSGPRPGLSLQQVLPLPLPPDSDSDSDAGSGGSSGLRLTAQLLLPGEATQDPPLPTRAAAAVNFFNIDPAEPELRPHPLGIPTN

Where only a bound is given, the exact number is not on record here.

This test concerns the target T1, human 5-HT6 receptor (Homo sapiens, UniProt P50406).
T1 construct: host or cells: CHO-K1 cells, stably transfected; membranes prepared in house
The test is described as follows: Human 5-HT6 Receptor Binding Assay ([3H]LSD displacement, scintillation beads). Conditions: read-out: h5-HT6 (Ki). As to the method: Human 5-HT6 Receptor Binding Assay
Membranes were prepared from CHO—K1 cells stably transfected with the human 5-HT6 receptor (Euroscreen; ES-316-C). The cells were grown in Gibco Advanced DMEM-F12 (Cat#12634010) containing 2% dialyzed FBS (Hyclone Cat#SH30079.03). The cells were harvested in phosphate buffered saline (PBS) containing 0.1 mM EDTA and pelleted by centrifugation (1000×g), the supernatant was discarded and the pellets were stored at −80° C. prior to membrane preparation. Membranes were prepared as previously described (J Bio Chem. 1992, 267 (14) 9844-51). […] The membranes were centrifuged at 40,000×g for 30 min at 4° C. and the pellets were resuspended in membrane buffer containing 250 mM sucrose, and protein concentration was determined using the Coomassie Plus kit (Pierce Biotechnology, Rockford, Ill.).
Membranes prepared from cells expressing recombinant human 5-HT6 receptor (h5-HT6) were resuspended in assay buffer containing 50 mM Tris HCl, (pH7.4), 4 mM CaCl2, 10 μg/mL saponin, and 0.1% (w/v) ascorbic acid. […] Plates were read using the Microbeta Trilux 1450 LSC and luminescence counter. Data were analyzed by nonlinear […] using the dose-response equation (variable slope) to calculate IC50 in XLfit4 (ID Business Solutions Inc.): y=(Bottom+((Top−Bottom)/(1+((IC50/x)^Hill slope)))) […]

As for “7-[(2-fluoropyridin-3-yl)sulfinyl]-4-1,2,3,4-tetrahydro[1]benzofuro[2,3-c]pyridine [Example 433]”, the Ki (as a rule, the equilibrium dissociation constant of an inhibitor or competing ligand from its target) was less than 500 nM.
